Literature values in patent US10729694B2 (AI Therapeutics, Inc., priority 2015, dated 2020).

Tested on: adipocytes
Settings: cited from earlier work

Nc1ccc(C(=O)Nc2cccc(-c3nc(N4CCOCC4)c4oc5ncccc5c4n3)c2)cn1 [YM-201636, 6-amino-N-(3-(4-morpholinopyrido[3′,2′:4,5]furo[3,2-d]pyrimidin-2-yl)phenyl)nicotinamide]
IC50: 54 nM
